This is a sample that favours compounds with a hit; in the whole collection about 2.2% have one here.
SIRT5 block: SIRT5 desuccinylase inhibitors, primary screen, biochemical, fluorescence imaging, single point, set 5; 1.1% of 330,000 active; inhibition, % at 15 µM; NAD-dependent protein deacylase sirtuin-5, mitochondrial (Homo sapiens), Q9NXA8; Purified SirT5, succinyl-peptide AMC, trypsin-coupled fluorescence; in the data active = inhibition above about 15%
UUG fidelity: alters start codon recognition fidelity in yeast. S. cerevisiae UUG-firefly luciferase reporter, luminescence/redox ratio. activity score, % at 18.7 µM. 0.13% of 350,000 active. AID 602363;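 active = replicate mean at a twofold rise or more, about +100% in these data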;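 also: firefly luciferase made from a UUG start codon reports start codon fidelity; reporter light over untreated wells divided by growth signal over untreated wells; some hits fall short of that in this replicate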
FGF22 binding: binders of human FGF22 protein, primary screen, FGF22 synaptogenesis inhibitor project, biophysical, thermal shift, single point. Fibroblast growth factor 22 (Homo sapiens), Q9HCT0. recombinant FGF22 thermal shift, SYPRO orange fluorescence; percent of sucrose octasulfate shift, DMSO zero. activity (Tm shift, normalised), % at 9.99 µM. 1.5% of 340,000 active. AID 651658, 2012;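 active = mean Tm shift, scaled 0 neutral to 100 positive control, at about 1.3% or above, every replicate too, limit read from the data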
S100A4 inh HTS: inhibitors of S100A4-myosin IIA peptide binding, primary screen, biochemical, fluorescence polarization, TAMRA-MyoIIA peptide; Protein S100-A4 (Homo sapiens), P26447; AID 652163, 2013; inhibition, % at 10.7 µM; 0.14% of 360,000 active;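 active = mean inhibition of at least 70% across replicates, with every replicate also reaching that level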
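assay system = human S100A4 monomer with TAMRA-labelled myosin IIA peptide | also added = labelled myosin peptide probe, 5 nM | incubation = 5 min between mix addition and reading | control set = DMSO and TFP controls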
PDI inh: inhibitors of human PDI, primary screen, biochemical, turbidity, single point, plate reader | 0.052% of 350,000 active | PDI insulin aggregation turbidity, A650, 90 min | inhibition, % at 10 µM | Protein disulfide-isomerase (Homo sapiens), P07237;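 active = mean inhibition across replicates of 30% or more, whatever share of single replicates reach that level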
ERp5 block: inhibitors of ERp5-driven insulin aggregation, primary screen, biochemical, turbidity, absorbance 650 nm, single point; inhibition, % at 9.99 µM; 0.05% of 350,000 active; AID 651711, 2012; 90 min; Protein disulfide-isomerase A6 (Homo sapiens), Q15084;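 active = mean replicate inhibition above about 25%, with every replicate also reaching it, limit read from the data, passing the limit was not always enough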
Active calls of the source: *; nt = no result.

Chains of the proteins cited; added tags and fusions are not shown.
Protein disulfide-isomerase A6 (Homo sapiens), Q15084, UniProt Q15084, whole entry, looked up: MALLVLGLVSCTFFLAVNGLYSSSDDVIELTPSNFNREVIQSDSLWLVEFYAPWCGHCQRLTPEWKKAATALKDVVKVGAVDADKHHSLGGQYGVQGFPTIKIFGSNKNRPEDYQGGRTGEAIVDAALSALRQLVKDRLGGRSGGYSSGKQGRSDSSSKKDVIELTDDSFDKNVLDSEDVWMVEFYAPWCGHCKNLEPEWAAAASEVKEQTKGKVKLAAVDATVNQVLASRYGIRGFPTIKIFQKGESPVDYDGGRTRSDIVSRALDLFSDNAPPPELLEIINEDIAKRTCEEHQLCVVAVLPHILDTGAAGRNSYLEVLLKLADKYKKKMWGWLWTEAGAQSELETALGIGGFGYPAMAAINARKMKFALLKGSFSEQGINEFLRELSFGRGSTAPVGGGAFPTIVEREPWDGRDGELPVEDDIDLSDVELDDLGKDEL

Key to letters: A = SIRT5 block; B = UUG fidelity; C = FGF22 binding; D = S100A4 inh HTS; E = PDI inh; F = ERp5 block
#1 CCc1cc2c(=O)[nH]c(Cc3ccccc3)nc2s1
  A: nt; B: -7; C: nt; D: nt; E: -5; F: nt

#2 CCc1nc2sccc2c(=O)[nH]1
  A: 0; B: -11; C: 44*; D: -1; E: 2; F: -5

#3 CCN1CCc2c(sc(NC(=O)c3ccc(S(=O)(=O)N(C)CC4CCCO4)cc3)c2C(N)=O)C1 (stereo not drawn)
  A: 24*; B: -18; C: 0; D: 2; E: -3; F: -3

#4 O=C(O)CCC(=O)N1CCCC1
  A: -1; B: nt; C: 43*; D: 0; E: 7; F: 0

#5 CNC(=O)C[C@@H]1CC[C@H]2[C@@H](COc3ccc(NC(=O)c4ccccc4Cl)cc3C(=O)N2C)O1
  A: 3; B: -12; C: 0; D: 10; E: nt; F: 0

#6 O=C(O)c1cc(-c2ccco2)nn1-c1cccc(Cl)c1
  A: 4; B: nt; C: 43*; D: -3; E: 0; F: -9

#7 Cc1cc(C(F)(F)F)nc(SCCN2CCOCC2)c1C#N
  A: 2; B: -9; C: 43*; D: 2; E: 7; F: -5

#8 CNC(=O)C[C@@H]1CC[C@H]2[C@H](COc3ccc(NC(=O)c4ccc(F)c(F)c4)cc3C(=O)N2C)O1
  A: -1; B: 18; C: 0; D: -2; E: nt; F: 0

#9 CN(/N=C/c1cc([N+](=O)[O-])ccc1O)c1ccccc1
  A: -1; B: nt; C: 0; D: 3; E: 16; F: 4

#10 CC(N=Cc1cc([N+](=O)[O-])ccc1O)c1ccccc1 (stereo not drawn)
  A: 3; B: -16; C: 44*; D: -26; E: -18; F: 0

#11 COc1ccc([N+](=O)[O-])cc1/C=N/NC(=O)Cc1ccccc1
  A: 3; B: nt; C: 44*; D: -3; E: 2; F: -2

#12 COc1cccc(/C=N/NC(=O)c2ccc(=O)n(C)c2)c1OC
  A: nt; B: -6; C: 0; D: -3; E: 14; F: 0

#13 COc1cccc(/C=N/NC(=O)c2ccccc2)c1OS(=O)(=O)c1ccccc1
  A: 1; B: nt; C: 44*; D: -12; E: -1; F: 2

#14 COc1ccccc1/C=N/NC(=O)COCC(=O)N/N=C/c1ccccc1OC
  A: 19*; B: -12; C: 0; D: -7; E: 5; F: 4

#15 O=C(C[C@@H]1C=C[C@@H](NC(=O)C2CC2)[C@@H](CO)O1)NCCc1cscn1
  A: -1; B: nt; C: nt; D: -3; E: nt; F: 0

#16 CC(C)[C@H](NC(=O)[C@H](CCCN=C(N)N)NC(=O)NC(Cc1ccccc1)C(=O)O)C(=O)NC(C=O)CCCN=C(N)N (stereo partly drawn)
  A: 46*; B: -10; C: 0; D: -2; E: 2; F: 1

#17 c1ccc(-c2ccccc2OCCN2CCCC2)cc1
  A: -2; B: -21; C: 0; D: 3; E: -16; F: -1

#18 CC1CN(CCOc2ccccc2-c2ccccc2)CC(C)O1 (stereo not drawn)
  A: 31*; B: -16; C: 0; D: 0; E: 11; F: 0

#19 CN1c2ccc(-c3ccccc3F)cc2[C@H]2[C@H](CCN2C(=O)CN2CCOCC2)[C@@H]1CO
  A: 0; B: 2; C: 0; D: 2; E: nt; F: -4

#20 O=C(Nc1nccs1)[C@@H]1[C@@H](CO)[C@@H]2Cn3c(cccc3=O)[C@@H]2N1C(=O)C1CCC1
  A: 5; B: -8; C: 0; D: 7; E: nt; F: 4

#21 CCCNC(=O)[C@@H]1[C@@H](CO)[C@@H]2Cn3c(cccc3=O)[C@@H]2N1C(=O)C1CCC1
  A: 7; B: 0; C: -1; D: 106*; E: nt; F: 1

#22 CCCNC(=O)[C@H]1[C@H](CO)[C@H]2Cn3c(cccc3=O)[C@H]2N1C(=O)C1CCC1
  A: 7; B: 8; C: 0; D: 15; E: nt; F: -3

#23 O=C(Nc1nccs1)[C@H]1[C@H](CO)[C@H]2Cn3c(cccc3=O)[C@H]2N1C(=O)C1CCC1
  A: 16*; B: -3; C: 0; D: 4; E: nt; F: -2

#24 CCN(CC)C(=O)C(=O)c1cn(CC(=O)NCC2CCCO2)c2ccccc12 (stereo not drawn)
  A: 1; B: nt; C: 44*; D: 25; E: -3; F: 0

#25 O=Cc1cn(CC(=O)NCC2CCCO2)c2ccccc12 (stereo not drawn)
  A: nt; B: -7; C: nt; D: nt; E: 1; F: nt

#26 O=C(Cn1c(NCCO)nc2ccccc21)NCC1CCCO1 (stereo not drawn)
  A: -4; B: -5; C: 43*; D: 0; E: 0; F: 1

#27 O=C(C[C@@H]1CC[C@@H]2[C@H](COC[C@H](O)CN2S(=O)(=O)c2ccccc2)O1)N1CCOCC1
  A: 0; B: -4; C: 0; D: 5; E: nt; F: 0

#28 O=C(Nc1nc2c(s1)CCCC2)c1ccc2ncsc2c1
  A: -5; B: -34; C: 1.7*; D: 2; E: -13; F: 1

#29 C/C=C/c1ccc2c(c1)O[C@@H](CN(C)CC1CCCC1)[C@H](C)CN([C@@H](C)CO)S2(=O)=O
  A: 18*; B: -6; C: 0; D: -30; E: nt; F: 0

#30 C[C@H](CO)N1C[C@H](C)[C@@H](CN(C)CC2CCCC2)Oc2cc(Br)ccc2S1(=O)=O
  A: 16*; B: 8; C: 0; D: 14; E: nt; F: 1

The final 2 compounds of the part before are carried over, then new ones follow:
Key to letters: A = SIRT5 block; B = UUG fidelity; C = FGF22 binding; D = S100A4 inh HTS; E = PDI inh; F = ERp5 block
#29 C/C=C/c1ccc2c(c1)O[C@@H](CN(C)CC1CCCC1)[C@H](C)CN([C@@H](C)CO)S2(=O)=O
  A: 18*; B: -6; C: 0; D: -30; E: nt; F: 0

#30 C[C@H](CO)N1C[C@H](C)[C@@H](CN(C)CC2CCCC2)Oc2cc(Br)ccc2S1(=O)=O
  A: 16*; B: 8; C: 0; D: 14; E: nt; F: 1

#31 C[C@H](CO)N1C[C@H](C)[C@H](CN(C)Cc2ccc(C(=O)Nc3ccccc3N)cc2)Oc2ccc(NC(=O)NC3CCCCC3)cc2CC1=O
  A: 6; B: nt; C: 0; D: -1; E: nt; F: -5

#32 Cc1nc(CN(C)Cc2nc(Cc3cccc(F)c3)no2)cs1
  A: 26*; B: -15; C: 42; D: -7; E: 3; F: 5

#33 O=C(NCC(=O)N1CCN(c2ncccn2)CC1)c1ccc(F)cc1
  A: 1; B: -22; C: 0; D: 13; E: 4; F: 2

#34 NC(=O)C1CCN(C(=O)CNC(=O)c2ccc(F)cc2)CC1
  A: nt; B: nt; C: 44*; D: -136; E: 5; F: -1

#35 CCCN1C[C@H](C)[C@H](OC)CN(C)C(=O)c2cc(NC(=O)NC3CCCCC3)ccc2OC[C@@H]1C
  A: 4; B: 13; C: 0; D: 116*; E: nt; F: 1

#36 CO[C@H]1CN(C)C(=O)c2cc(NC(=O)NC3CCCCC3)ccc2OC[C@H](C)N(CCc2ccccc2)C[C@@H]1C
  A: 25*; B: nt; C: 0; D: -5; E: nt; F: -1

#37 CCCN1C[C@@H](C)[C@H](OC)CN(C)C(=O)c2ccc(NC(=O)Nc3cccc(F)c3)cc2OC[C@@H]1C
  A: 18*; B: -5; C: 0; D: -1; E: nt; F: 3

#38 COc1cccc(C(=O)Nc2ccc3c(c2)C(=O)N(C)C[C@H](OC)[C@@H](C)CN(CCc2ccccc2)[C@H](C)CO3)c1
  A: 20*; B: nt; C: 0; D: -6; E: nt; F: 4

#39 C[C@H]1CN([C@@H](C)CO)S(=O)(=O)c2ccc(-c3ccncc3)cc2O[C@@H]1CN(C)Cc1ccncc1
  A: nt; B: -12; C: nt; D: nt; E: nt; F: nt

#40 COc1ccc2c3c([nH]c2c1)[C@@H](CO)N(Cc1ccccc1OC)CC31CN(C)C1
  A: nt; B: nt; C: 0; D: 11; E: nt; F: -6

#41 CCCN1C[C@@H](C)[C@H](OC)CN(C)C(=O)c2cc(NC(=O)c3cnccn3)ccc2OC[C@H]1C
  A: 17*; B: nt; C: 0; D: -8; E: nt; F: -7

#42 CC(C)NC(=O)Nc1ccc2c(c1)CC(=O)N([C@H](C)CO)C[C@H](C)[C@@H](CN(C)C)O2
  A: -5; B: nt; C: 0; D: 4; E: nt; F: -3

#43 CCNc1sc(S(C)(=O)=O)nc1S(=O)(=O)c1ccc(Cl)cc1
  A: 0; B: nt; C: 43*; D: 4; E: -12; F: 1

High-throughput results deposited in PubChem BioAssay by Broad Institute.
